Molecules are shown by their SMILES. “And” between values parts separate entries of the source, which are not always exact repeats. Equal values may be shown once. Marks after values point to notes of the source that are not given here.

Sequences of proteins named here, by UniProt entry; tags and fusion partners are left off.
UniProt P47746, whole entry: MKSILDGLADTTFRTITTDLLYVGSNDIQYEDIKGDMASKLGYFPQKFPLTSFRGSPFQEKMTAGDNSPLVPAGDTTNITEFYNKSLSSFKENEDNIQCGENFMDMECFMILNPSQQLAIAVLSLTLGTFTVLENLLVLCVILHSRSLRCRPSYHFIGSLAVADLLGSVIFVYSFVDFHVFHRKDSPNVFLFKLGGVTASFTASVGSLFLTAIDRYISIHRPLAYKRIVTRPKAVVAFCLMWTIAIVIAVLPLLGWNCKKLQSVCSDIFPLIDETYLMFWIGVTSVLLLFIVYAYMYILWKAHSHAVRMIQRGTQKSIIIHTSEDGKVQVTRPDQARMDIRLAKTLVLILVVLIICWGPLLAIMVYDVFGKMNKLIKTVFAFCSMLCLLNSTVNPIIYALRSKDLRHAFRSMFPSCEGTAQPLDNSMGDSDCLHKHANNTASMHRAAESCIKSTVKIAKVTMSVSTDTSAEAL

The source of these data is article PMC3288656 (Biochemical pharmacology, 2012).

This assay has as its target CB1Rs (Mus musculus, UniProt P47746). The experiment in a line: [35S]GTPγS binding assay. In kind it is biochemical. Background: Binding of GTPγS marks nucleotide exchange on a G protein.

As to `CCCCCc1cc(O)c2c(c1)OC(C)(C)[C@@H]1CCC(C)=C[C@@H]21` [Δ^9-THC, Δ^9-tetrahydrocannabinol, reference compound], the “[35S]GTPγS Binding Emax” value (concentration-effect curves, mouse brain homogenates, n=3–4) was 0.08 ± 0.01 ^c pmole/mg. For the same compound, the “[35S]GTPγS Binding” value (drug 1 μM) is 0.17 ± 0.01 pmol/mg; the “[35S]GTPγS Binding” value (drug 10 μM (receptor-saturating)) was 0.08 ± 0.00 pmole/mg and 0.08 ±0.00 ^a, ^b pmole/mg. The “[35S]GTPγS Binding + O-2050 (1 μM)” value (drug 1 μM co-incubated with CB1R antagonist O-2050 1 μM) was found to be 0.06 ± 0.01 pmol/mg.
